Laboratory results published in patent publication US20250368678A1, “19-NOR-C3,3-DISUBSTITUTED C21-AZACYCLO-S[…] AND METHOD FOR USING SAME” (SHANDONG LUYE PHARMACEUTICAL CO., LTD., priority 2022, published 2025).

How the values were obtained:
[1] = In vitro liver microsomal stability assay, rat; type: in vitro ADME
Protocol: (§1) 1) Preparation of working solutions of test samples: The test samples were diluted with acetonitrile to 100 M.
(§2) 2) Preparation of a working solution of liver microsomes: liver microsomes were diluted with 100 mM phosphate-buffered saline to 0.56 mg/mL.
(§3) 3) Preparation of a working solution of reduced nicotinamide adenine dinucleotide (NADPH): A proper amount of NADPH was weighed out and diluted with phosphate-buffered saline to 20 mM, and an equal volume of a 60 mM MgCl2 solution was added.
(§4) 4) Preparation of a stop solution: Tolbutamide was diluted with acetonitrile to 20 ng/mL, serving as a stop solution containing an internal standard.
(§5) 1) Incubation anti-adsorption EP tubes were prepared and labeled with species, test/control sample, time points (0, 5, 10, 20, 30, 60 min, Blank60, and NCF60), etc.
(§6) 2) 2 L of test or control sample working solution, diluted with acetonitrile to 100 M, and 178 L of liver microsome working solution were added to each tube. For the Blank60 tube, 2 L of acetonitrile was added instead of a test sample. The tubes were pre-incubated in a 37° C. water bath for about 10 min, with each sample tested in triplicate.
(§7) 3) After the pre-incubation was complete, 20 L of NADPH working solution was added to each tube except for the 0 min and NCF60 tubes to start reactions, and 20 L of phosphate-buffered saline (containing 30 mM MgCl2) was added to the NCF60 tube. In the incubation system, the final concentrations of the test and control samples were 1 M, the final concentration of liver microsomes was 0.5 mg/mL, the final concentration of NADPH was 1 mM, and the final concentration of MgCl2 was 3 mM.
(§8) 4) For the 0 min sample, 600 L of stop solution was added before adding the NADPH working solution. After each sample was incubated for its respective time, 600 L of stop solution was added to stop the reaction.
(§9) 5) After the reaction was stopped, each sample was vortexed for 30 s and then centrifuged at 13,500 rpm for 10 min. 100 L of the supernatant was transferred to an EP tube, and 100 L Milli-Q water was added. The mixture was well mixed by vortexing and analyzed by LC-MS/MS.
(§10) 6) Testosterone and dextromethorphan were used as positive control samples under the same conditions to assess the stability and reliability of the system.
(§11) Parameters of the test samples, including their half-lives, intrinsic clearance rates in liver microsomes, and hepatic intrinsic clearance rates, were calculated based on the percentage of test sample remaining.

[2] = In vitro liver microsomal stability assay, human; type: in vitro ADME
Protocol: as §1, §2, §3, §4, §5, §6, §7, §8, §9, §10, §11

SMILES: C[C@@]1(O)CC[C@H]2[C@H](CC[C@@H]3[C@@H]2CC[C@]2(C)[C@@H](C(=O)Cn4ncn(-c5cccc(F)c5)c4=O)CC[C@@H]32)C1
- CLint(mic) ([1]; Rat liver microsomes): 486 μL/min/mg protein
- Clint(liver) ([1]; Rat liver microsomes): 875 mL/min/kg
- T1/2 ([1]; Rat liver microsomes): 2.9 min
- Remaining amount % at 60 min ([1]; Rat liver microsomes 0.5 mg/mL, NADPH): 5.61%
- CLint(mic) ([2]; Human liver microsomes): 20 μL/min/mg protein
- Clint(liver) ([2]; Human liver microsomes): 28 mL/min/kg
- T1/2 ([2]; Human liver microsomes): 69.3 min
- Remaining amount % at 60 min ([2]; Human liver microsomes 0.5 mg/mL, NADPH): 53.59%
